Values quoted from earlier work, collected in PMC3089658.

Amino acid sequences for entries named in this document (tags omitted). Residues count along the entry.
UniProt P01589, 22-240, chain 1 of 3: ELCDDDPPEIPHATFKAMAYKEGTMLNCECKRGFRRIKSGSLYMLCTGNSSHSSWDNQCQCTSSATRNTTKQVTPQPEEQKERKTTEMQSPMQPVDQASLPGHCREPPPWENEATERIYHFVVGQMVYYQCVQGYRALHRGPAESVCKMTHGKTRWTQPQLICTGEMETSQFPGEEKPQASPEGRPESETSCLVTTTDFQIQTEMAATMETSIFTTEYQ
UniProt P60568, 21-153: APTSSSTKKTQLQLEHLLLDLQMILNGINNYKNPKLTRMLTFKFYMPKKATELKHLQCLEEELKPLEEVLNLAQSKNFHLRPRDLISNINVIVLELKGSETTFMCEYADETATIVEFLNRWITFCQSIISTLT

Target: high affinity IL-2R (Homo sapiens) (UniProt P01589)

- Kd: 0.01 nM
Substance: IL-2 (from UniProt P60568)
